Experiment: Plasma protein binding in human
Type: ADME, cell-free

O=C(O[C@H]1CN2CCC1CC2)C1(c2ccccc2)CCCCCC1
PPB: 95%

O=C(O[C@H]1CN2CCC1CC2)C1(c2cccs2)CCCCCC1
PPB: 95%

From ChEMBL document CHEMBL3085673, “The design of a novel series of muscarinic receptor antagonists leading to AZD8683, a potential inhaled treatment for COPD” (Bioorg Med Chem Lett, 2013)
